According to paper PMC3648997 (Bioorganic & medicinal chemistry letters, 2013):

System: ARE-bla HepG2 cell line
Assay: cells
Conditions: Homo sapiens, HepG2, read-out: ARE-inducing activity EC50

## O=C(O)[C@@H]1CCCC[C@@H]1C(=O)N1CCc2ccccc2[C@@H]1CN1C(=O)c2ccccc2C1=O [(RSR)-5]
  EC50: > 100 µM
